Data reported in ChEMBL document CHEMBL4266052, “Evaluation of Inhibitory Activities of UK-2A, an Antimycin-Type Antibiotic, and Its Synthetic Analogues against the Production of Anti-inflammatory Cytokine IL-4” (J Nat Prod, 2018).

tested on: RBL-2H3; test: Anti-inflammatory activity in DNP-IgE-stimulated rat RBL2H3 cells assessed as reduction of IL4 secretion pretreated for 10 mins followed by DNP-HSA stimulation measured after 1 hr by ELISA; assay type: functional, cell-based

Structure (SMILES) | Activity
COc1ccnc(C(=O)N[C@H]2COC(=O)[C@H](Cc3ccccc3)[C@@H](OC(=O)CC(C)C)[C@H](C)OC2=O)c1O | Dose-dependent effect
CCCC[C@H]1C(=O)OC[C@H](NC(=O)c2nccc(OC)c2O)C(=O)O[C@@H](C)[C@@H]1OC(=O)C(C)C | Dose-dependent effect
CC(C)C(=O)O[C@H]1[C@H](C)OC(=O)[C@@H](NC(=O)c2cccc(NC=O)c2O)COC(=O)[C@@H]1Cc1ccccc1 | Dose-dependent effect
